From patent US10130633B2, “Compounds” (BAYER PHARMA AKTIENGESELLSCHAFT, priority 2013, dated 2018)
pIC50: −log10 of the molar value. Structures can show the parent of a compound that is named as a salt. Where two headings read alike, the source gives them in different places.

Assays:
[1] = test system: constitutive active colorectal cancer cell (CRC) Wnt pathway; test: HCT116 TOPFlash cellular reporter assay (Super TopFlash luciferase), constitutive active Wnt pathway; format: cell-based; settings: HCT116 TOP reporter cells, 36 hours incubation, luciferase expression
From the text: In order to discover and characterize small molecules which inhibit the constitutive active colorectal cancer cell (CRC) Wnt pathway, a cellular reporter assay was employed. The corresponding assay cell was generated by transfection of the colorectal cancer cell line HCT116 (ATCC, #CCL-247) with the Super TopFlash vector (Morin, Science 275, 1997, 1787-1790; Molenaar et al., Cell 86 (3), 1996, 391-399). […] Stable transfectants were generated by cotransfection with pcDNA3 and selection of stable transfected cells with 1 mg/ml G418.

[2] = test system: HCT116 FOP control reporter cell line; test: HCT116 FOPFlash control reporter assay (FOP control vector, non-functional TCF elements); format: cell-based; settings: HCT116 FOP control reporter cells, 36 hours incubation, luciferase expression
From the text: (§1) In a parallel approach, HCT116 cells were cotransfected with the FOP control vector and pcDNA3. The FOP vector is identical to the TOP construct, but it contains instead of functional TCF elements a randomized, non-functional sequence. For this transfection a stable transfected cell line was generated as well.

[3] = test system: wildtype Wnt pathway; test: HEK293 TOP reporter assay, wildtype Wnt pathway stimulated with Wnt-3a; format: cell-based, human; settings: HEK293 TOP cells, EC50 concentration of recombinant Wnt-3a, 16 hours; read-out: HEK TOP OncoFlash IC50
Experimental: (§2) Measurement of luciferase expression was done as described for the constitutive active Wnt assay.
In order to discover and characterize small molecules which inhibit the wildtype Wnt pathway, a cellular reporter assay was employed. […] Stable transfectants were generated by selection with 300 μg/ml Hygromycin.

[4] = test system: HEK293 FOP control reporter cell line; test: HEK293 FOP control reporter assay; format: cell-based, human; settings: read-out: HEK FOP IC50
Experimental: as §2
as §1, with “HEK293” for “HCT116”, “well, based on selection with Geneticin (1 mg/ml).” for “well.”

SMILES	pIC50 ([1]; Homo sapiens, HCT-116, 36 h)	pIC50 ([2]; Homo sapiens, HCT-116, 36 h)	pIC50 [3]	pIC50 [1]	pIC50 ([4]; HEK293 FOP control cells, EC50 concentration of recombinant Wnt-3a, 16 hours)	pIC50 [2]	pIC50 ([4]; Homo sapiens, HEK293, 16 h)
O=C(CN1CCOCC1)Nc1cc(NC(=O)c2ccc(-c3cccc(F)c3F)nc2)ccc1OC(F)(F)F [Example 26, 6-(2,3-difluorophenyl)-N-{3-[(morpholin-4-ylacetyl)amino]-4-(trifluoromethoxy)phenyl}nicotinamide]	6.93	≤ 4.30	6.46	–	–	–	–
C[C@@H](C(=O)Nc1cc(C(=O)Nc2ccc(-c3ccc(N)cc3)nc2)ccc1OC(F)(F)F)N1CCOCC1 (single isomer, unassigned) [Example 118, N-[6-(4-aminophenyl)pyridin-3-yl]-3-{[(2R)-2-(morpholin-4-yl)propanoyl]amino}-4-(trifluoromethoxy)benzamide or N-[6-(4-aminophenyl)pyridin-3-yl]-3-{[(2S)-2-(morpholin-4-yl)propanoyl]amino}-4-(trifluoromethoxy)benzamide]	–	–	–	7.90	4.80	–	–
C[C@@H](C(=O)Nc1cc(C(=O)Nc2ccc(-c3ccccc3F)nc2)ccc1OC(F)(F)F)N1CCOCC1 (single isomer, unassigned) [Example 9, N-[6-(2-fluorophenyl)pyridin-3-yl]-3-{[(2S)-2-(morpholin-4-yl)propanoyl]amino}-4-(trifluoromethoxy)benzamide or N-[6-(2-fluorophenyl)pyridin-3-yl]-3-{[(2R)-2-(morpholin-4-yl)propanoyl]amino}-4-(trifluoromethoxy)benzamide]	–	–	8.05	7.85	–	4.69	–
O=C(Nc1ccc(-c2cc(F)cc(F)c2)nc1)c1ccc(OC(F)(F)F)c(NC(=O)C2(N3CCOCC3)CC2)c1 [Example 71, N-[6-(3,5-difluorophenyl)pyridin-3-yl]-3-({[1-(morpholin-4-yl)cyclopropyl]carbonyl}amino)-4-(trifluoromethoxy)benzamide]	7.53	4.35	6.80	–	–	–	–
CC(C(=O)Nc1cc(C(=O)Nc2ccc(-c3ccccc3)nc2)ccc1OC(F)(F)F)N1CCOCC1 (centres unmarked) [Example 10, 3-{[2-(morpholin-4-yl)propanoyl]amino}-N-(6-phenylpyridin-3-yl)-4-(trifluoromethoxy)benzamide]	–	–	7.04	7.95	–	–	–
O=C(CN1CCOCC1)Nc1cc(NC(=O)c2ccc(-c3ccccc3)s2)ccc1Cl [Example 21, N-{4-chloro-3-[(morpholin-4-ylacetyl)amino]phenyl}-5-phenylthiophene-2-carboxamide]	–	5.04	6.85	–	–	–	5.24
C[C@@H](C(=O)Nc1cc(C(=O)Nc2ccc(-c3ccccc3F)nc2)ccc1OC(F)(F)F)N1CCN(C)CC1 (single isomer, unassigned) [Example 65, N-[6-(2-fluorophenyl)pyridin-3-yl]-3-{[(2S)-2-(4-methylpiperazin-1-yl)propanoyl]amino}-4-(trifluoromethoxy)benzamide or N-[6-(2-fluorophenyl)pyridin-3-yl]-3-{[(2R)-2-(4-methylpiperazin-1-yl)propanoyl]amino}-4-(trifluoromethoxy)benzamide]	–	–	6.82	8.28	–	–	–
CC(C(=O)Nc1cc(C(=O)Nc2nnc(-c3ccccc3)s2)ccc1OC(F)(F)F)N1CCOCC1 (centres unmarked) [Example 57, 3-{[2-(morpholin-4-yl)propanoyl]amino}-N-(5-phenyl-1,3,4-thiadiazol-2-yl)-4-(trifluoromethoxy)benzamide]	–	–	6.30	6.91	–	–	–
O=C(Nc1ccc(OC(F)(F)F)c(NC(=O)C2(N3CCOCC3)CC2)c1)c1ccc(-c2ccccc2)nc1 [Example 61, N-[3-({[1-(morpholin-4-yl)cyclopropyl]carbonyl}amino)-4-(trifluoromethoxy)phenyl]-6-phenylnicotinamide]	7.58	≤ 4.30	6.92	–	–	–	–
COc1ccc(NC(=O)c2ccc(-c3cccc(F)c3)nc2)cc1NC(=O)CN1CCOCC1 [Example 32, 6-(3-fluorophenyl)-N-{4-methoxy-3-[(morpholin-4-ylacetyl)amino]phenyl}nicotinamide]	6.03	≤ 4.30	6.59	–	–	–	–
O=C(CN1CCOCC1)Nc1cc(NC(=O)c2cc(-c3ccccc3)[nH]n2)ccc1OC(F)(F)F [Example 124, N-{3-[(morpholin-4-ylacetyl)amino]-4-(trifluoromethoxy)phenyl}-5-phenyl-1H-pyrazole-3-carboxamide]	–	–	7.08	–	–	–	4.89
CC(C(=O)Nc1cc(C(=O)Nc2nnc(-c3ccccc3)s2)ccc1OC(F)(F)F)N1CCN(C)CC1 (centres unmarked) [Example 260, 3-{[2-(4-methylpiperazin-1-yl)propanoyl]amino}-N-(5-phenyl-1,3,4-thiadiazol-2-yl)-4-(trifluoromethoxy)benzamide trifluoroacetate (1:1)]	–	–	–	6.91	–	5.01	–
O=C(Nc1nnc(-c2ccccc2)s1)c1ccc(OC(F)(F)F)c(NC(=O)C2(N3CCOCC3)CC2)c1 [Example 50, 3-({[1-(morpholin-4-yl)cyclopropyl]carbonyl}amino)-N-(5-phenyl-1,3,4-thiadiazol-2-yl)-4-(trifluoromethoxy)benzamide]	7.34	≤ 4.30	7.01	–	–	–	–
CC(C(=O)Nc1cc(C(=O)Nc2ccc(-c3cccc(F)c3)nc2)ccc1OC(F)(F)F)N1CC2CCC(C1)O2 (centres unmarked) [Example 70, N-[6-(3-fluorophenyl)pyridin-3-yl]-3-{[2-(8-oxa-3-azabicyclo[3.2.1]oct-3-yl)propanoyl]amino}-4-(trifluoromethoxy)benzamide]	–	–	7.07	7.62	–	–	5.20
CC(C(=O)Nc1cc(C(=O)Nc2ccc(-c3ccccc3)nc2)ccc1OC(F)(F)F)N1CCOCC1 (centres unmarked) [Example 208, 3-{[2-(morpholin-4-yl)propanoyl]amino}-N-(6-phenylpyridin-3-yl)-4-(trifluoromethoxy)benzamide]	–	–	–	7.98	–	–	–
O=C(CN1CCN(C2CC2)CC1)Nc1cc(C(=O)Nc2ccc(-c3ccccc3F)nc2)ccc1OC(F)(F)F [Example 63, 3-{[(4-cyclopropylpiperazin-1-yl)acetyl]amino}-N-[6-(2-fluorophenyl)pyridin-3-yl]-4-(trifluoromethoxy)benzamide]	7.29	≤ 4.30	6.85	–	–	–	–
CC(C(=O)Nc1cc(C(=O)Nc2nnc(-c3ccccc3)s2)ccc1OC(F)(F)F)N1CCN(C)CC1 (centres unmarked) [Example 273, 3-{[2-(4-methylpiperazin-1-yl)propanoyl]amino}-N-(5-phenyl-1,3,4-thiadiazol-2-yl)-4-(trifluoromethoxy)benzamide trifluoroacetate (1:1)]	–	–	–	6.03	–	4.57	–
CC(C(=O)Nc1cc(C(=O)Nc2ccc(-c3ccc(N)cc3)nc2)ccc1OC(F)(F)F)N1CCOCC1 (centres unmarked) [Example 111, N-[6-(4-aminophenyl)pyridin-3-yl]-3-{[2-(morpholin-4-yl)propanoyl]amino}-4-(trifluoromethoxy)benzamide]	7.49	≤ 4.30	–	–	–	–	–
Cc1ccc(C(=O)Nc2ccc(-c3ccccc3F)nc2)cc1NC(=O)C1(N2CCOCC2)CC1 [Example 76, N-[6-(2-fluorophenyl)pyridin-3-yl]-4-methyl-3-({[1-(morpholin-4-yl)cyclopropyl]carbonyl}amino)benzamide]	7.50	≤ 4.30	7.27	–	–	–	–
CC(=O)Nc1ccc(-c2ccc(NC(=O)c3ccc(OC(F)(F)F)c(NC(=O)C(C)N4CCOCC4)c3)cn2)cc1 (centres unmarked) [Example 113, N-[6-(4-acetamidophenyl)pyridin-3-yl]-3-{[2-(morpholin-4-yl)propanoyl]amino}-4-(trifluoromethoxy)benzamide]	7.64	≤ 4.30	6.05	–	–	–	–
O=C(Nc1ccc(-c2ccccc2F)nc1)c1ccc(OC(F)(F)F)c(NC(=O)C2(N3CCN(C4CC4)CC3)CC2)c1 [Example 67, 3-({[1-(4-cyclopropylpiperazin-1-yl)cyclopropyl]carbonyl}amino)-N-[6-(2-fluorophenyl)pyridin-3-yl]-4-(trifluoromethoxy)benzamide]	7.53	≤ 4.30	7.89	–	–	–	–
COc1ccc(NC(=O)c2ccc(-c3ccccc3)[nH]2)cc1NC(=O)CN1CCOCC1 [Example 24, N-{4-methoxy-3-[(morpholin-4-ylacetyl)amino]phenyl}-5-phenyl-1H-pyrrole-2-carboxamide]	5.95	–	6.19	–	–	–	4.77
